AlphaSeq binding of Ab-14 light chain variants to a spike HR2 peptide

From the AlphaSeq antibody data of Li et al. 2023 (doi:10.1038/s41467-023-39022-2), copy in the FLAb collection.

All variants were tested on one target, the spike HR2 peptide PDVDLGDISGINAS (SARS-CoV-2).

Each scFv is VH, a 15-residue (Gly4Ser)3 linker, VL, as in the parent Ab-14, and differs from it in the CDRs of the light chain only.
VH: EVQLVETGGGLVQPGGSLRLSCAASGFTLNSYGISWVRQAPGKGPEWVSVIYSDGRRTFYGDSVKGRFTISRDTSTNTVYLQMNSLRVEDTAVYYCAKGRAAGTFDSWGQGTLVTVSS
VL: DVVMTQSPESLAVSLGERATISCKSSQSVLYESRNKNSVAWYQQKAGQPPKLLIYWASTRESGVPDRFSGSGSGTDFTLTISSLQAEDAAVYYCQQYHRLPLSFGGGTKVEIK

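These sequences belong to a second round, designed from the earlier measurements on random variants of the parent. Their group label is 14L_GP_HC (GP: Gaussian process model; HC: hill climbing; a sequence that several methods proposed may carry one label only). In AlphaSeq, yeast of one mating type display the scFv and yeast of the other type display the target. Binding brings cells together so that they mate, and sequencing counts the barcode pairs among the diploids. Read counts were normalised to the haploid input and turned into Kd by a linear fit to BCL2-family pairs of known affinity, for each replicate. Mating was done six times.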

Each variant is given by its three light chain CDRs, as the data file delimits them; those of the parent are KSSQSVLYESRNKNSVA, WASTRES, QQYHRLPLS. Values are log10 of the apparent Kd in nM; lower means stronger binding. The mean shown is taken over the replicates in which the pair was detected. An entry "ND" has no value in the source: the pair was not observed among the diploids in that replicate. This suggests poor binding but is not conclusive. A sequence measured in both rounds can read differently, since the two assays cover different ranges. Nonspecific signal, from three strains lacking the peptide, appeared in 4% of pairings of all light chain designs, centred on 2.64 (5% of these signals below 1.59); values are not corrected for it. The control count says in how many pairings with the empty strains this scFv gave a signal, with their mean in brackets. The authors averaged sequences with at least three values out of six and counted those with two or fewer as poor binders. The parent sequence was in this pool as ten entries: three were never detected, three once, and four in most replicates, with averages from 0.34 to 2.37.

| # | CDR-L1 | CDR-L2 | CDR-L3 | replicates, log10 nM | mean log10 Kd (nM) | empty controls |
|---|---|---|---|---|---|---|
| 1 | KVLQSVLYEGRNKNSVA | QASTRED | QQYHRLPLS | 0.52 0.37 0.14 0.00 0.24 0.36 | 0.27 | 1 of 18 (1.66) |
| 2 | HLMQSMLYESRNKNSVA | HASLRED | QQYHRLPLS | 0.35 0.21 0.29 0.08 0.12 0.25 | 0.22 | 0 of 18 |
| 3 | KFSQSVLGEQRNKNSVA | DASTRES | QQYHRLPLS | -0.23 -0.36 -0.53 -0.50 -0.45 -0.26 | -0.39 | 3 of 18 (3.18) |
| 4 | HFSQSVLYESRNKNSVA | NGSTRES | QQYHRLPLS | -0.08 -0.33 -0.36 -0.38 -0.38 -0.17 | -0.28 | 2 of 18 (3.08) |
| 5 | KSLQSVLYESNNKNSVA | HASTRED | QQYHRLPLS | 0.78 0.92 0.75 1.00 0.62 0.56 | 0.77 | 0 of 18 |
| 6 | KVSQSWLYEDRVKNSVA | GADTRES | QQYHRLPLS | 0.68 0.40 0.15 0.20 0.25 0.34 | 0.34 | 2 of 18 (2.71) |
| 7 | KSSQSWLYESRNKNPVA | GASQRES | QQYHRLPLS | 0.41 0.34 0.07 0.06 0.07 0.40 | 0.22 | 2 of 18 (2.90) |
| 8 | KSSQSWLYEDRVKNNVA | GASTRES | QQYHRLPLS | 1.28 0.69 0.95 0.81 0.75 1.75 | 1.04 | 0 of 18 |
| 9 | NLSQSWLYESRNKNSVA | GGSTRES | QQYHRLPLS | -0.11 -0.40 -0.47 -0.62 -0.45 -0.27 | -0.39 | 0 of 18 |
| 10 | KQSQSVPYESANKNSVA | DASTRES | QQYHRLPLS | 0.12 -0.14 -0.11 -0.40 0.08 -0.02 | -0.08 | 1 of 18 (2.27) |
| 11 | KHSISYLGEKRNKNSVA | EASTRES | QQYHRLPLS | 0.22 0.61 0.39 0.22 0.53 0.75 | 0.45 | 0 of 18 |
| 12 | KSSQSGLYESRNKNSVA | HASTREQ | QQYHRLPLS | 1.81 1.02 2.17 1.34 1.82 1.81 | 1.66 | 0 of 18 |
| 13 | KVSKSVLFESRNKNSVA | NASTRES | QQYHRLPLR | 0.46 0.54 0.22 0.37 0.67 0.76 | 0.50 | 1 of 18 (2.89) |
| 14 | KMSQSVLYESRNKNSVA | DASTRSS | QQYHRLPLS | -0.12 -0.22 -0.27 -0.37 -0.27 -0.24 | -0.25 | 0 of 18 |
| 15 | YLMQSVLYESRNKNSVA | HASLRED | QQYHRLPLS | 0.53 0.47 1.86 0.61 0.47 0.58 | 0.75 | 0 of 18 |
| 16 | KLSQGVLYESRWKNSVA | GASTRES | QQYHRLPLS | 0.35 0.31 0.31 0.11 0.26 0.36 | 0.28 | 2 of 18 (3.48) |
| 17 | KFSDSVELESRTKNSVA | NASTRES | QQYHRLPLS | 0.03 -0.01 -0.22 -0.11 0.03 -0.04 | -0.05 | 2 of 18 (2.84) |
| 18 | KISQSFLYESRNKNSVA | GASTRES | QNYHRLPLS | 0.02 0.42 0.36 0.38 0.64 0.60 | 0.41 | 1 of 18 (2.74) |
| 19 | KSSQSWGYESRNKNSVA | EASTRES | QQYHRLPLS | -0.79 -0.97 -0.29 -1.11 -0.74 -0.74 | -0.77 | 0 of 18 |
| 20 | KSLGSVLYESNNKNSVA | HASTRED | QQYHRLPLS | 0.39 0.27 0.29 0.22 0.14 0.20 | 0.25 | 1 of 18 (3.59) |
| 21 | KFSQSVLYESRTGNSVA | NASTRES | QQYHRLPLS | -0.08 0.18 -0.06 -0.09 -0.06 0.13 | 0.00 | 3 of 18 (1.93) |
| 22 | KVQQSVLYESRNKNSVA | HASTRED | QQYHRLPLS | -0.07 -0.07 0.22 -0.14 -0.30 0.12 | -0.04 | 0 of 18 |
| 23 | KSSPSYLEESRNKNSVA | EASTRES | QQYHRLPLS | 0.14 -0.18 -0.28 -0.19 -0.27 -0.14 | -0.15 | 2 of 18 (2.48) |
| 24 | HLSPSVLYESRNKNSVA | NASTRSS | QQYHRLPLS | 0.24 0.08 0.13 0.07 -0.07 0.18 | 0.10 | 1 of 18 (2.77) |
| 25 | KSSESYLYESRNENSVA | EASTREQ | QQYHRLPLS | 0.22 0.05 0.07 0.04 0.12 0.13 | 0.10 | 0 of 18 |
| 26 | KSSQSVDAESRNKNSVA | DASTRES | QQYHRLPLS | 0.17 -0.03 -0.06 -0.28 -0.25 -0.03 | -0.08 | 0 of 18 |
| 27 | KLRQSENYESRNKNSVA | NASTRES | QIYHRLPLS | 3.08 2.48 2.71 2.28 1.92 2.64 | 2.52 | 2 of 18 (2.79) |
| 28 | KQSQSVLQESRNCNSVA | DASTRES | QQYVRLPLS | 0.01 0.12 0.26 -0.03 0.09 0.39 | 0.14 | 0 of 18 |
| 29 | KVSQVYLYESRNKNSVA | GASTRES | QQYHRLPLS | -0.03 -0.21 -0.27 -0.24 -0.28 0.01 | -0.17 | 3 of 18 (3.22) |
| 30 | KVPQSTLYESRNKNSVA | WASTRES | QQYHRLPLS | 1.38 1.71 1.38 2.53 ND 1.24 | 1.65 | 0 of 18 |
| 31 | KSSWSVLYESNNKNSVA | AASTRED | QQYHRLPLS | 0.53 0.46 0.37 0.34 0.28 0.52 | 0.42 | 1 of 18 (1.95) |
| 32 | KLSLSVLGESRNKNSVA | NASTRES | QQYHRLPLS | 0.17 -0.07 -0.06 0.05 -0.09 0.25 | 0.04 | 1 of 18 (3.57) |
| 33 | KSSQSVKFESRNKNSVA | DASTREY | QQYHRLPLS | 0.47 0.30 0.14 0.02 0.11 0.28 | 0.22 | 2 of 18 (2.68) |
| 34 | KLYQSVLYESRNKNSVA | HASTRED | QQYHRLPLS | -0.14 -0.24 -0.20 -0.49 -0.34 -0.12 | -0.26 | 1 of 18 (2.16) |
| 35 | KSSISYLYESMNKNSVA | QASTRES | QQYHRLPLS | 0.41 0.26 0.58 0.21 0.08 0.37 | 0.32 | 0 of 18 |
| 36 | KVSQSWLMESRNKNSVA | EASTRTS | QQYHRLPLS | -0.36 -0.26 -0.15 -0.49 -0.09 -0.15 | -0.25 | 1 of 18 (2.48) |
| 37 | KFSQKVLYEHRNKNSVA | NASTRES | QQYHRLPLS | 0.11 -0.02 -0.35 -0.16 -0.05 -0.05 | -0.09 | 0 of 18 |
| 38 | KFSQSWLYESRNKNSVA | GASTREN | QQYHRLPLS | -0.69 -0.51 -0.28 -0.99 -0.98 -0.63 | -0.68 | 0 of 18 |
| 39 | KVSQSVLYESRTKNGVA | NASTRES | QQYHRLPLS | -0.05 -0.22 -0.57 -0.25 -0.05 -0.29 | -0.24 | 0 of 18 |
| 40 | KVPQSVLYESRNKNSVA | HASTRED | QSYHRLPLS | 0.20 0.05 0.07 0.14 -0.06 0.39 | 0.13 | 1 of 18 (1.97) |
| 41 | KVLQSVLYESRNKNSVA | EASTRED | QQYHRLPLS | 0.29 0.08 0.07 0.08 -0.02 0.39 | 0.15 | 1 of 18 (1.91) |
| 42 | KQSQSFLCESRNKNSVA | DASTRES | QQYHRLPLS | 0.22 -0.07 -0.07 -0.11 0.08 -0.04 | 0.00 | 1 of 18 (3.56) |
| 43 | KLSQSDLYESRNKNSVA | GGSTRES | QQYHRLPLS | 0.23 -0.10 0.08 -0.15 0.11 0.19 | 0.06 | 2 of 18 (2.74) |
| 44 | KLRMSTLYESRNKNSVA | SASTRES | QQYHRLPLS | -0.20 -0.49 -0.43 -0.67 -0.76 -0.45 | -0.50 | 0 of 18 |
| 45 | KVRQSELYESRNKNSVA | WASTRES | QQYHRLPLS | 0.54 1.09 0.99 0.69 0.81 1.26 | 0.90 | 2 of 18 (3.04) |
| 46 | KSSPSGLYESRMKNSVA | EASTRES | QQYHRLPLS | 0.67 0.55 0.36 0.29 0.29 0.61 | 0.46 | 2 of 18 (3.43) |
| 47 | KLSQWVLYESRTKNSVA | NASTRES | QQYHRLPLS | 0.11 -0.14 -0.20 -0.13 0.13 0.07 | -0.03 | 2 of 18 (2.64) |
| 48 | KVSQSVLYESRDKNSVA | NASTRES | QQYHRLPLS | -0.03 -0.01 -0.21 -0.16 -0.20 -0.10 | -0.12 | 2 of 18 (1.78) |
| 49 | KSSQSFLYESRSKNSVA | GASQRES | QQYHRLPLS | 0.11 -0.04 -0.18 -0.24 0.01 0.31 | 0.00 | 0 of 18 |